# Conditions: pure water
row,Substance,solubility
1,APYHPTIPASVH-GGGK-biotin [peptide 5],low solubility
2,NPYHPTIPQSVH-GGGK-biotin [peptide 3],low solubility
3,NPYAPTIPQSVA-GGGK-biotin [peptide 4],low solubility

# From patent publication US8022040B2, “Hydroxyapatite-binding peptides for bone growth and inhibition” (The Regents of the University of California, priority 2004, dated 2011)
